Data: patent US7825121B2, “Piperazine derivatives useful as CCR5 antagonists” (Schering Corporation, priority 1999, dated 2010)

The chains behind the UniProt entries cited, without tags or fusion partners.
UniProt P51681, whole entry: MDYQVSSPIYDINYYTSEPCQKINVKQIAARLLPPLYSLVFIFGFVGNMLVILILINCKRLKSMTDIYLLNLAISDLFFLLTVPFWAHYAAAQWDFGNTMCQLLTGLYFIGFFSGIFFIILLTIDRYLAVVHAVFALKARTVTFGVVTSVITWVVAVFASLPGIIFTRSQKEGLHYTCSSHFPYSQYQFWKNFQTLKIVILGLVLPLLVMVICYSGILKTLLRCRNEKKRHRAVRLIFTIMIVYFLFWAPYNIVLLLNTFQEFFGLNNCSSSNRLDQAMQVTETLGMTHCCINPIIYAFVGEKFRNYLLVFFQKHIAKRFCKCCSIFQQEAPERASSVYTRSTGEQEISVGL

Target: T1, human CCR5 chemokine receptor (Homo sapiens, UniProt P51681)
T1 construct: expressed in transfected cells; host or cells: NIH 3T3 cells (murine), membranes
Test: CCR5 membrane binding assay (inhibition of RANTES binding)
Settings: 125I-RANTES, membranes from NIH 3T3 cells expressing human CCR5
Procedure: CCR5 Membrane Binding Assay:
A high throughput screen utilizing a CCR5 membrane binding assay identifies inhibitors of RANTES binding. This assay utilizes membranes prepared from NIH 3T3 cells expressing the human CCR5 chemokine receptor which have the ability to bind to RANTES, a natural ligand for the receptor. […] Compounds are serially diluted over a wide range of 0.001 ug/ml to 1 ug/ml and tested in triplicates. Reaction cocktails are harvested through glass fiber filters, and washed thoroughly.
In the table, “Ex. No.” stands for “Example Number” and “nM” stands for “nanomolar.”

Cc1ncnc(C)c1C(=O)N1CCC(C)(N2CCN([C@@H](C)c3ccc(C(F)(F)F)cc3)[C@@H](C)C2)CC1 [Example 23]
Ki: 2.95 nM
